Data as given in PubChem BioAssay (NCATS).
The entries are a selection whose mix differs from that of the whole data set. Results filed as inconclusive are left out. The source made the active and inactive calls. Unless noted, calls come from the whole dose curve; as a rule, active = well fitted curve in the direction sought with a large enough effect; inconclusive = small, poorly fitted or top-dose-only effect, or another doubt; inactive = no such curve, though single readings can be large; an effect the other way counts as inactive or inconclusive.

By UniProt entry, the sequences of proteins in these tests, tags left out. Where a name states a change or a piece, a line headed by the entry shows the natural chain unless it says otherwise.
UniProt O95398, whole entry: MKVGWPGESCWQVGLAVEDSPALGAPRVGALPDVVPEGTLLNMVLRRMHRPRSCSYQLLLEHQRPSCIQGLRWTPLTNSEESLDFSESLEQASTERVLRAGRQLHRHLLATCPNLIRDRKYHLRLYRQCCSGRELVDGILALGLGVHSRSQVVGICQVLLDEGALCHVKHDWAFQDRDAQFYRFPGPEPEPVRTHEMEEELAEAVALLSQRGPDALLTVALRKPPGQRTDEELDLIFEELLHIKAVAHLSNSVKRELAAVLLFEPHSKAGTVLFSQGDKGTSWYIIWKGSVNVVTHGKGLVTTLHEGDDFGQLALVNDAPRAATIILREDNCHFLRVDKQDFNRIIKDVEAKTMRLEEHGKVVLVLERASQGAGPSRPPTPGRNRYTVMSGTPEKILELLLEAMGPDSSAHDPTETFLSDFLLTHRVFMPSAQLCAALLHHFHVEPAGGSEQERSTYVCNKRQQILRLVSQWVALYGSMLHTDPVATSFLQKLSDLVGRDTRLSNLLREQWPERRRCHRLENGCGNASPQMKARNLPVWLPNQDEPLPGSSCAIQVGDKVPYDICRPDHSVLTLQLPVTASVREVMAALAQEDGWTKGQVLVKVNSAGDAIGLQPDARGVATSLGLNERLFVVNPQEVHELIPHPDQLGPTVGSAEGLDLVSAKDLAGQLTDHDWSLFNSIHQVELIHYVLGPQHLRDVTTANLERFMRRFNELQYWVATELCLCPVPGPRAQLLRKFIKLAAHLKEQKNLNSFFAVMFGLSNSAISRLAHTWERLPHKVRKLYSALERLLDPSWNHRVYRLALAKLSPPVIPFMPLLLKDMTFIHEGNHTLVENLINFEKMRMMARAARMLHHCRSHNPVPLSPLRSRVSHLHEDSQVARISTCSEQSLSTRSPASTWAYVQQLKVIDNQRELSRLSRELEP
UniProt P08684, whole entry: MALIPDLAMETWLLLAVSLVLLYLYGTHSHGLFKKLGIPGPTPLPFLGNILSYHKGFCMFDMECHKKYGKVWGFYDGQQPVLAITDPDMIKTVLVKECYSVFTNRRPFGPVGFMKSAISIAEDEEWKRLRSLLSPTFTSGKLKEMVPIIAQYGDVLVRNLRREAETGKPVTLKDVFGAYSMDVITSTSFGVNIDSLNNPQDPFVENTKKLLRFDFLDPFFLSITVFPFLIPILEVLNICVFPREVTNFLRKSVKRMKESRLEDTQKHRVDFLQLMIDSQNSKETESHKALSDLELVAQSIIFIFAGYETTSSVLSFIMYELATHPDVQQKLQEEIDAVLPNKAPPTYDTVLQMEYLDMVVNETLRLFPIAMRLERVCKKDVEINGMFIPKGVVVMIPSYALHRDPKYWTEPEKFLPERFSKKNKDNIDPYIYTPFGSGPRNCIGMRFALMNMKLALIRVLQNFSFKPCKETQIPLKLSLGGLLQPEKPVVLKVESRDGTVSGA
UniProt P11712, whole entry: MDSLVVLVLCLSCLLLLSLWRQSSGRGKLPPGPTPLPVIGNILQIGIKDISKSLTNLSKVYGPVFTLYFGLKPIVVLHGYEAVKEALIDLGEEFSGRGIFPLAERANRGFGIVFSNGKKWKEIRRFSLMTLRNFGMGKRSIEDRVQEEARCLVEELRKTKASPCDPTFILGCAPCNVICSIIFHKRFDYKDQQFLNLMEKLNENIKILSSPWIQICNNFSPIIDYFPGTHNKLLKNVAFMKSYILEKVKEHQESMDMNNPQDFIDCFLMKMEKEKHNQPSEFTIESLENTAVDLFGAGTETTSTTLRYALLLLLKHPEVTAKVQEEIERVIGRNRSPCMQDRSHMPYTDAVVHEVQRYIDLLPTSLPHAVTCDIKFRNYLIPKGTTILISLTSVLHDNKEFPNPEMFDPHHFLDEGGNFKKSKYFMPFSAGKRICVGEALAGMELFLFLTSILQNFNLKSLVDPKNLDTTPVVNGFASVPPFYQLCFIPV
UniProt P07203, whole entry: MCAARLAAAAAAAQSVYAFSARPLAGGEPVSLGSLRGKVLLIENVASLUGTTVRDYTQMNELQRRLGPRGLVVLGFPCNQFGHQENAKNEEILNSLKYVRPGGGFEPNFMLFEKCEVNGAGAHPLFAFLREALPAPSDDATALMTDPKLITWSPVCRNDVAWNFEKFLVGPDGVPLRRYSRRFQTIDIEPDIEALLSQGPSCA
UniProt P36969, whole entry: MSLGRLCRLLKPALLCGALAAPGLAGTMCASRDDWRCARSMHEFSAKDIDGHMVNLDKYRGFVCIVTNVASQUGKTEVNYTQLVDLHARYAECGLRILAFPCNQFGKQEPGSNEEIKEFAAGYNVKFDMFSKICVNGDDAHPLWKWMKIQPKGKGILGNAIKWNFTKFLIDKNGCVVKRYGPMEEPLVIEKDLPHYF

Key:
[1] = target: Rap guanine nucleotide exchange factor 3 (Homo sapiens) (UniProt O95398); experiment: Confirmatory qHTS for antagonist of cAMP-regulated guanine nucleotide exchange factor 3 (EPAC1) (AID 1645880); conditions: EPAC1 Rap1B-BODIPY-GDP exchange, fluorescence; at 115 µM (top of the series);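 note: plate controls were DMSO only for no effect and full effect of the ATA control for full effect; nearly all actives have a fitted effect of over 55% in size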
Method in brief: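 Released BODIPY-GDP fluoresces less than Rap1-bound BODIPY-GDP; the signal is followed at 480/540 nm at 5-min intervals over 30 min, after 5 min at room temperature. Reactions contain 100 nM EPAC1, 250 nM RAP1B-BODIPY-GDP and 50 uM GDP; results are normalized to ATA and DMSO.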

[2] = target: Rap guanine nucleotide exchange factor 3 (Homo sapiens) (UniProt O95398); experiment: Counterscreen qHTS for agonist of cAMP-regulated guanine nucleotide exchange factor 3 (EPAC1) (AID 1645889); conditions: EPAC1 Rap1B-BODIPY-GDP exchange, fluorescence; at 154 µM (top of the series); note: % of control where 0% means no effect; nearly all actives have a fitted effect of over 40% in size
Method in brief: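 Measured: fluorescence of BODIPY-GDP bound to Rap1B, which falls as exchange proceeds. Conditions include 50 uM competing GDP, 5 and 30 min reads, and a later cAMP challenge for antagonist detection.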

[3] = target: Cytochrome P450 3A4 (Homo sapiens) (UniProt P08684); experiment: Cytochrome P450 family 3 subfamily A member 4 (CYP3A4) small molecule antagonists: luciferase qHTS assay (AID 1645841; active = well fitted curve in the direction sought with a large enough effect in the repeat runs; an effect the other way counts as inactive or inconclusive; note: nearly all actives have a fitted effect of over 45% in size); conditions: P450-Glo CYP3A4 enzyme assay, luciferin luminescence; at 57.4 µM (top of the series)
[4] = target: Cytochrome P450 2C9 (Homo sapiens) (UniProt P11712); experiment: Cytochrome P450 family 2 subfamily C member 9 (CYP2C9) small molecule antagonists: luciferase qHTS assay (AID 1645842; active = well fitted curve in the direction sought with a large enough effect in the repeat runs; an effect the other way counts as inactive or inconclusive; note: % is set by controls: 0 for no effect and ±100 for the full control effect; nearly all actives have a fitted effect of over 55% in size); conditions: P450-Glo CYP2C9 enzyme assay, luciferin luminescence; at 57.4 µM (top of the series)
Method in brief: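 P450-Glo CYP2C9 system: proluciferin substrate with enzyme in mix containing 0.4% BSA, 10 min at room temperature, then NADPH regeneration solution added and incubated 1 h at 37C. Detection reagent stopped reaction; luminescence read after 20 min as RLU.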

[5] = Primary qHTS for inhibitors of nuclear receptor binding SET domain protein 2 (NSD2) in an isogenic RCH-ACV NSD2 p.E1099K mutant (9B) (AID 1645876); conditions: RCH-ACV NSD2 E1099K (9B) viability, CellTiter-Glo, 72 h; at 44.9 µM (top of the series); note: % is set by controls: 0 for no effect and ±100 for the full control effect; nearly all actives have a fitted effect of over 70% in size
[6] = Primary qHTS for inhibitors of nuclear receptor binding SET domain protein 2 (NSD2) in an RCH-ACV wild type WT cells (2C) (AID 1645877); conditions: RCH-ACV (leukaemia line) NSD2 WT (2C) viability, CellTiter-Glo, 72 h; at 44.9 µM (top of the series); note: % is set by controls: 0 for no effect and ±100 for the full control effect; nearly all actives have a fitted effect of over 70% in size
Excerpt: Assay Provider: Jonathan D. Licht, MD
University of Florida College of Medicine, Gainesville, FL
Mutations in epigenetic regulators are common in relapsed pediatric acute lymphoblastic leukemia (ALL). Here, we uncovered the mechanism underlying the relapse of ALL driven by an activating mutation of the NSD2 histone methyltransferase (p.E1099K). […] Correction of this mutation restored glucocorticoid sensitivity. The transcriptional response to glucocorticoids was blocked in NSD2 mutant cells due to depressed glucocorticoid receptor (GR) levels and the failure of glucocorticoids to autoactivate GR expression. […] Pre-treatment of NSD2 p.E1099K cell lines and PDX samples with PRC2 inhibitors reversed glucocorticoid resistance in vitro and in vivo.
High-throughput drug screening of isogenic RCH-ACV cell lines was performed at the National Center for Advancing Translational Science (NCATS), National Institutes of Health as previously described (1). Briefly, isogenic RCH-ACV NSD2 p.E1099K mutant (9B) and WT cells (2C) were plated at 500 cells/well in a 1536-well plate with a 72-hour incubation with compounds prior to addition of CellTiter-Glo to assess cell viability. NCATS libraries screened include: NPC, MIPE 5.0, Kinase and NPACT. To determine compound activity in the qHTS assay, the concentration-response data for each sample was plotted and modeled by a four-parameter logistic fit yielding IC50 and efficacy (maximal response) values. The area under the curve (AUC) of the dose-response curve ensures both efficacy (magnitude of cell killing) and potency (concentration that elicits cell killing) are accounted for in the analysis of activity.
1. Tobie D Lee, Olivia W Lee, Kyle R Brimacombe, Lu Chen, Rajarshi Guha, Sabrina Lusvarghi, Bethilehem G Tebase, Carleen Klumpp-Thomas, Robert W Robey, Suresh V Ambudkar, Min Shen, Michael M Gottesman, Matthew D Hall. A High-Throughput Screen of a Library of Therapeutics Identifies Cytotoxic Substrates of P-glycoprotein. Mol Pharmacol. 2019, Nov;96(5):629-640.

[7] = target: Glutathione peroxidase 1 (Homo sapiens) (UniProt P07203); experiment: Primary qHTS Assay for Inhibitors of Recombinant Selenoprotein Glutathione Peroxidase 1 (GPX1) (AID 1845191); conditions: recombinant GPX1, GR-coupled NADPH fluorescence, 15 min; activity, negative = inhibition: at 48.8 µM (top of the series); note: nearly all actives have a fitted effect of over 65% in size; for activity, negative = inhibition: % is set by controls: 0 for no effect and ±100 for the full control effect
Method in brief: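 GPX1 10 nM, GR 100 nM, GSH 1 mM, NADPH 0.5 mM, CHP 0.5 mM (final). 30-min cpd preincubation, RT. Ex340/Em450 read t=0, t=15 min.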

[8] = target: Phospholipid hydroperoxide glutathione peroxidase GPX4 (Homo sapiens) (UniProt P36969); experiment: Primary qHTS Assay for Inhibitors of Recombinant Selenoprotein Glutathione Peroxidase 4 (GPX4) (AID 1845192); conditions: recombinant GPX4, GR-coupled NADPH fluorescence, 15 min; activity change, negative = inhibition: at 50 µM (top of the series); note: nearly all actives have a fitted effect of over 65% in size; for activity change, negative = inhibition: % is set by controls: 0 for no effect and ±100 for the full control effect
Method in brief: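 qHTS, GR-coupled: GPX4 200 nM + cpd 30 min RT → GSH 1 mM, NADPH 0.5 mM, GR 100 nM → CHP 0.5 mM start; fluor 340/450 at t0 and t15 min; no-enzyme wells as control.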

[9] = target: Luciferin 4-monooxygenase (Photinus pyralis) (UniProt P08659); experiment: Primary firefly luciferase (FLuc) qHTS assay for identification of artifact compounds. (AID 1845220); conditions: purified firefly luciferase, luminescence, 5 min; at 54.1 µM (top of the series);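 note: plate controls were DMSO vehicle for no effect and no enzyme for full effect; nearly all actives have a fitted effect of over 60% in size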
Method in brief: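 Reaction readout was CCD-imaged luminescence, taken 5 min after adding 10 nM purified firefly enzyme to compound-treated wells holding 10 uM luciferin and ATP in pH 7.6 buffer.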

[10] = Primary fluorescence-based thiol-reactive (MSTI) qHTS assay for identification of artifact compounds. (AID 1845221); conditions: MSTI thiol-reactivity probe, 1 h; at 53.8 µM (top of the series);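 note: thiol-reactive compounds lower the probe fluorescence signal; nearly all actives have a fitted effect of over 65% in size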
Method in brief: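 MSTI probe at 4 uM final in 2% DMSO/PBS pH 7.4; compounds, 1 h at room temperature in dark. Fluorescence Ex/Em 525/598 nm, normalised to Acetyl-MSTI and MSTI, fitted to 4-parameter Hill.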

[11] = tested on: Nanoluciferase (engineered Oplophorus gracilirostris luciferase); experiment: Primary Nanoluciferase (NLuc) qHTS assay for identification of artifact compounds. (AID 1845222); conditions: NLuc-conditioned medium, Nano-Glo luminescence, 5 min; at 54.1 µM (top of the series);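 note: NLuc secreted into diluted conditioned medium of S16 cells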
Method in brief: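 Concentration-response data were obtained by luminescence after 5 min with Nano-Glo substrate at 1:100. The enzyme was diluted S16 NLuc-expressing cell medium, preincubated with compound for 15 min at RT. Curves were fitted with a 4-parameter Hill model.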

[12] = Primary redox qHTS assay for identification of artifact compounds. (AID 1845223); conditions: Amplex Red/HRP redox cycling with DTT, fluorescence; at 53.8 µM (top of the series)
Method in brief: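 Redox-cycling detection via DTT (250 uM final) oxidation coupled to Amplex Red (25 uM)/HRP (250 mU/mL) in HBSS. 15 min preincubation plus 30 min after DTT, room temperature. Ex/Em 525/598 nm; 4-parameter Hill fit against DMSO and 10 uM DA3003.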

[13] = Quantitative High-Throughput drug screen in 47 multiple myeloma cell lines against the NCATS MIPE library collection: FR4_PLB cell viability assay (AID 1918924; note: nearly all actives have a fitted effect of over 35% in size); conditions: FR4_PLB myeloma cells viability, CellTiter-Glo ATP, 48 h; at 45.8 µM (top of the series)
Method in brief: (§1)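 qHTS of the MIPE 4.0 collection: 500 myeloma cells/well, 48 h drug exposure at 37C in 5% CO2, then CellTiter-Glo for 5 min at room temperature before luminescence reading.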

[14] = Quantitative High-Throughput drug screen in 47 multiple myeloma cell lines against the NCATS MIPE library collection: EJM_DSMZ cell viability assay (AID 1918926; note: nearly all actives have a fitted effect of over 30% in size); conditions: EJM myeloma cell viability, CellTiter-Glo ATP, 48 h; at 45.8 µM (top of the series)
Method in brief: (§2)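 Myeloma cells (500 per well) were exposed to MIPE 4.0 compounds by pin transfer and incubated 48 hours at 37C, 5% CO2. Viability was read as ATP by CellTiter-Glo luminescence, normalised to DMSO (100%) and media-only (0%) wells.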

[15] = Quantitative High-Throughput drug screen in 47 multiple myeloma cell lines against the NCATS MIPE library collection: AMO1_DSMZ cell viability assay (AID 1918927; note: nearly all actives have a fitted effect of over 30% in size); conditions: AMO1 myeloma cells viability, CellTiter-Glo ATP luminescence, 48 h; at 45.8 µM (top of the series)
Method in brief: as §2

[16] = Quantitative High-Throughput drug screen in 47 multiple myeloma cell lines against the NCATS MIPE library collection: ARP1_JJKsccF8 cell viability assay (AID 1918928; note: nearly all actives have a fitted effect of over 40% in size); conditions: ARP1 myeloma cells viability, CellTiter-Glo ATP, 48 h; at 45.8 µM (top of the series)
Method in brief: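 Each line was plated at 500 cells/well and treated 48 h with library drugs. Viability came from CellTiter-Glo luminescence relative to DMSO and cell-free medium controls.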

[17] = Quantitative High-Throughput drug screen in 47 multiple myeloma cell lines against the NCATS MIPE library collection: ARD_JJKsccE7 cell viability assay (AID 1918929); conditions: ARD myeloma cell line viability, CellTiter-Glo, 48 h; at 45.8 µM (top of the series)
Method in brief: as §2

[18] = Quantitative High-Throughput drug screen in 47 multiple myeloma cell lines against the NCATS MIPE library collection: Karpas620_DSMZ cell viability assay (AID 1918959); conditions: Karpas620 myeloma viability, CellTiter-Glo ATP luminescence, 48 h; at 45.8 µM (top of the series); note: nearly all actives have a fitted effect of over 30% in size
Method in brief: as §1

[19] = Quantitative High-Throughput drug screen in 47 multiple myeloma cell lines against the NCATS MIPE library collection: Karpas417_ECACC cell viability assay (AID 1918961); conditions: Karpas417 myeloma viability, CellTiter-Glo ATP luminescence, 48 h; at 45.8 µM (top of the series)
Method in brief: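 Luminescent ATP measurement with CellTiter-Glo gives viability, scaled between DMSO-only wells (100%) and media-only wells (0%). Cells, 500 per well, faced library compounds for 48 hours at 37C.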

[20] = Quantitative High-Throughput drug screen in 47 multiple myeloma cell lines against the NCATS MIPE library collection: JIM3_ECACC cell viability assay (AID 1918963; note: nearly all actives have a fitted effect of over 35% in size); conditions: JIM3 myeloma viability, CellTiter-Glo ATP, 48 h; at 45.8 µM (top of the series)
Method in brief: as §1

CCCCn1nnnc1C(c1cc2ccccc2o1)N1CCC(n2c(=O)[nH]c3ccccc32)CC1 (stereo not drawn)
inactive: activity, negative = inhibition [1] -37.1% | activation [2] -19.5%

CCC(c1nnnn1C(C)(C)C)N1CCC(n2c(=O)[nH]c3ccccc32)CC1 (stereo not drawn)
inactive: activity, negative = inhibition [1] -19.9%

CCOC(=O)N1CCC(=O)CC1
inactive: activity change, negative = inhibition [3] 0% | activity change, negative = inhibition [4] 14.5% | activity change, negative = viability loss [5] 4.86% | activity change, negative = cell killing [6] 0.369%

CC(=O)N1CCc2ccc(N(C(=O)/C=C/c3cccc(C#N)c3)C3CCN(CCC4CCCC4)CC3)cc21
inactive: activity change, negative = viability loss [5] -8.98% | activity change, negative = cell killing [6] -23.4% | activity, negative = inhibition [7] 3.34% | activity change, negative = inhibition [8] -1.24% | activity change, negative = inhibition [9] 1.74% | activity change, negative = thiol reactive [10] 26.2% | activity, negative = inhibition [11] 0.627% | redox activity (% of DA3003) [12] 6.59%

CCOC(=O)C(=O)CBr
inactive: activity change, negative = viability loss [5] -1.94% | activity change, negative = cell killing [6] 4.98% | outcome [7] | outcome [8] | viability (% of DMSO control) [13] 119% | viability, % of control [14] 92.4% | viability, % of DMSO [15] 106% | viability [16] 91.7% | viability [17] 103% | viability (% of DMSO) [18] 93.9% | viability (% of DMSO) [19] 153% | viability, percent of control [20] 105%

CCC(=O)N(c1ccccc1)C1CCNCC1
inactive: activity change, negative = inhibition [4] -3.61%
